Data from PubChem BioAssay AID1230 (PCMD, 2008).
This is a selection; strong and weak results do not stand in their true shares. Activity calls are given as the source filed them.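 Rule for the calls: active = signal enhancement of 30% or more; inactive = the rest.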

Sequences of proteins named here, by UniProt entry; tags and fusion partners are left off.
UniProt Q00987, whole entry: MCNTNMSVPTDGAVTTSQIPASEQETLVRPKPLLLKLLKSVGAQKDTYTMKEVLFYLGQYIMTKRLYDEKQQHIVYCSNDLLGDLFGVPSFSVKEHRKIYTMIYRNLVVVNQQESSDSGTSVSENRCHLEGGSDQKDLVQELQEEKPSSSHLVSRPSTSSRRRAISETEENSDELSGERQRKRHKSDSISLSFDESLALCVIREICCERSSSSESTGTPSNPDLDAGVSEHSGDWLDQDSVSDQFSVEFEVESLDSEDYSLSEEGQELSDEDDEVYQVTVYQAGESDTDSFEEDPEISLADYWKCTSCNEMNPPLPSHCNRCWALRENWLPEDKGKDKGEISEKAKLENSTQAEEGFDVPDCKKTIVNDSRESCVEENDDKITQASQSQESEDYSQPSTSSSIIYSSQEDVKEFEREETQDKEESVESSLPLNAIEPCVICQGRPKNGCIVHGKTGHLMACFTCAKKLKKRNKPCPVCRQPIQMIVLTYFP

Target: E3 ubiquitin-protein ligase Mdm2 (Homo sapiens) (UniProt Q00987)
Assay: MDM2-luciferase reporter signal enhancers, primary screen, MDM2 E3 ligase inhibitor project, cell-based, luminescence, 1536-well (AID 1230);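 note: luminescence tracks abundance of the self-degrading MDM2-luciferase fusion protein; higher signal means inhibition of MDM2 E3 ligase activity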
Settings: cell-based MDM2 ubiquitination luciferase reporter, 2 h; at 5 µM; hits give high values; 0 = plate control, 100 = twice control, blank-subtracted
Procedure, shortened: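 Buffer or medium: Cells held in DMEM | Assay system: Stable mammalian line carrying autodegrading MDM2–luciferase fusion reporter | Quantity: 2000 cells/well | Times: 4 h settle plus 2 h compound, 37 °C | Doses: One concentration, 5 µM, with 0.2% DMSO | Technique: Luminescence with SteadyLite reagent, 15 min at room temperature | Benchmarks: Plate controls and plate blanks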

| Structure (SMILES) | signal enhancement |
| --- | --- |
| CP(=O)(Nc1ccccc1F)Oc1ccccc1 (stereo not given) | inactive: -20.8% |
| CC(C)c1ccc(OP(C)(=O)Nc2ccc(SC(F)(F)F)cc2)cc1 (stereo not given) | inactive: 9.28% |
| CCN(CC)CCCOC(=O)C(O)(c1ccccc1)C1CCCCC1 (stereo not given) | inactive: -10.4% |
| CP(=O)(Nc1ccccc1)Oc1ccc(F)cc1 (stereo not given) | inactive: -19.5% |
| CCCCCOc1ccc(NP(C)(=O)Oc2ccc(Cl)cc2Cl)cc1 (stereo not given) | inactive: -19.3% |
| CCOC(=O)c1ccc(NP(C)(=O)Oc2ccc(F)cc2)cc1 (stereo not given) | inactive: -46.1% |
| COc1ccc(OP(C)(=O)Nc2ccc(SC(F)(F)F)cc2)cc1 (stereo not given) | inactive: -1.74% |
| O=[N+]([O-])c1ccc(OP2(=O)COCCO2)cc1 (stereo not given) | inactive: -13.8% |
| Cc1cc(-c2cccc3ccccc23)c(C)cn1.O=[N+]([O-])c1cc([N+](=O)[O-])c(O)c([N+](=O)[O-])c1 | inactive: 2.68% |
| O=[N+]([O-])c1cc([N+](=O)[O-])c(NCC2CCS(=O)(=O)C2)c([N+](=O)[O-])c1 (stereo not given) | inactive: -5.45% |
| COc1ccc(OP(C)(=O)Nc2cccc(Br)c2)cc1 (stereo not given) | inactive: -5.57% |
| CN(C)CCOC(=O)C(O)(c1ccccc1)C1CCCCC1 (stereo not given) | inactive: -18.6% |
| COc1ccc(NP(C)(=O)Oc2ccccc2OC)cc1 (stereo not given) | inactive: -20.1% |
| CP(=O)(Nc1ccc2c(c1)OCCO2)Oc1ccccc1 (stereo not given) | inactive: -15.1% |
| Cc1ccccc1NP(C)(=O)Nc1ccccc1C | inactive: 9.56% |
| CP(=O)(Nc1ccc(SC(F)(F)F)cc1)Oc1ccc(F)cc1 (stereo not given) | inactive: -2.27% |
| CCOP(C)(=S)SCC(=O)NC(C)(CC)C(=O)O (stereo not given) | inactive: -0.1% |
| Cc1nc2ccc3ccccc3c2s1.O=[N+]([O-])c1cc([N+](=O)[O-])c(O)c([N+](=O)[O-])c1 | inactive: 7.34% |
| O=[N+]([O-])c1cc([N+](=O)[O-])c(-n2nnc3ccccc32)c([N+](=O)[O-])c1 | inactive: -7.58% |
| COc1ccccc1OP(C)(=O)Nc1c(C)cccc1C (stereo not given) | inactive: -12.9% |
| CN1CCCCC1COC(=O)C1(O)c2ccccc2CCc2ccccc21 (stereo not given) | inactive: 4.79% |
| CP(=O)(Nc1ccc(SC(F)(F)F)cc1)Oc1ccccc1 (stereo not given) | inactive: 0.38% |
| CCCOc1ccc(NP(C)(=O)Oc2ccc(Cl)cc2)cc1 (stereo not given) | inactive: -12.1% |
| CCOC(=O)C(CC)C1=NC(C)(C)Cc2ccccc21.O=[N+]([O-])c1cc([N+](=O)[O-])c(O)c([N+](=O)[O-])c1 (stereo not given) | inactive: -12.2% |
| CC1=NCCc2c1[nH]c1ccccc21.O=[N+]([O-])c1cc([N+](=O)[O-])c(O)c([N+](=O)[O-])c1 | inactive: -11.8% |
